This is an account of results in article PMC3602246 (BMC Pharmacology & Toxicology, 2013).

Protein sequences, listed by entry. Tags and fused reporters are not part of them. Lines headed by an entry give the natural chain unless they say otherwise; changes in a name come on top.
UniProt P41145: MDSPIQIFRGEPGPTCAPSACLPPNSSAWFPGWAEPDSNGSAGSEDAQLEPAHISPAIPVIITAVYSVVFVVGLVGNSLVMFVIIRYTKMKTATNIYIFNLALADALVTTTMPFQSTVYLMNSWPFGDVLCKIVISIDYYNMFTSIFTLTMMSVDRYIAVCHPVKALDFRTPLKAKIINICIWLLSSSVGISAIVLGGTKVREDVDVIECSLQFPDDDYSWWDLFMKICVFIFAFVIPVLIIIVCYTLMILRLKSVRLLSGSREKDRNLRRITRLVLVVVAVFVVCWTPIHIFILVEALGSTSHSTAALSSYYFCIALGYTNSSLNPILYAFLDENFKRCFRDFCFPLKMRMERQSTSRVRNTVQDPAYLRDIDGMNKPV

In assay [1] the target is T1, human kappa opioid receptor (Homo sapiens, UniProt P41145).
T1 construct: FLAG; expressed in transfected cells
It is filed as cell-based.

Assay [2] deals with T1, human kappa opioid receptor. It is filed as cell-based. The source holds these as a separate data set.
In assay [3] the target is MOR. The settings on record: read-out: Ki, affinity binding to the MOR; cited from earlier work.
The target of assay [4] is DOR. The note with it: read-out: Ki, affinity binding to the DOR; cited from earlier work.
For assay [5], the target named is KOR. The note with it: read-out: Ki, affinity binding to the KOR; cited from earlier work.

On to Dynorphin A (1–13), for which, in assay [1], the “DMR agonist activity classification, KOR” value is “Full agonist”. Moreover, in assay [2], the “ligand DMR in PTX-pretreated cells” value is listed as “detectable P-DMR”.
As to (Leu5)-Enkephalin, the Ki (commonly the dissociation constant of the complex between target and ligand, obtained from inhibition or displacement) in assay [3] was 7.4 nM; in assay [4] it was 6.2 nM; in assay [5], 9.4 nM.
